Source: ChEMBL document CHEMBL1157664, “Aminopyridinecarboxamide-based inhibitors: Structure-activity relationship” (Bioorg Med Chem, 2010)

Sequences of proteins named here, by UniProt entry; tags and fusion partners are left off. A change or cut given only in a name is not applied to a line headed by its entry.
UniProt O14920: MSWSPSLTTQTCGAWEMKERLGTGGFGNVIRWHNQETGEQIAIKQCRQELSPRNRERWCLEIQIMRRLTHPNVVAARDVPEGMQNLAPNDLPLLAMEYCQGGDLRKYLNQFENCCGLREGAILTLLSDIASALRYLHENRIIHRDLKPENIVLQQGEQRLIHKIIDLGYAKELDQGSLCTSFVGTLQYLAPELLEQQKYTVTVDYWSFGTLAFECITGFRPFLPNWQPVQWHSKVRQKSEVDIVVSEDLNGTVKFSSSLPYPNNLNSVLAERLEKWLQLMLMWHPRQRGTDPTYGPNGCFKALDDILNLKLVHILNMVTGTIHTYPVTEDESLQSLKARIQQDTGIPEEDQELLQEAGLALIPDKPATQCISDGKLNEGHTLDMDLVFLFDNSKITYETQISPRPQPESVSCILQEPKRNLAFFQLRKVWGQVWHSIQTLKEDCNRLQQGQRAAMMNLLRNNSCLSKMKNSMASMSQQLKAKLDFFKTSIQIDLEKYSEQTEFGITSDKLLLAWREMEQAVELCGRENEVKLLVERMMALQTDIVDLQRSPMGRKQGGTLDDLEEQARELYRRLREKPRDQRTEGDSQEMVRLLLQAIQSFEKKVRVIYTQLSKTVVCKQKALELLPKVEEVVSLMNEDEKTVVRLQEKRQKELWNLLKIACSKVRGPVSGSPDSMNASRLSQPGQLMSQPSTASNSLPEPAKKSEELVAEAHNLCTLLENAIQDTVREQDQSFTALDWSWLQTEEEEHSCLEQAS

Columns and labels:
[1] = target: T1, Inhibitor of nuclear factor kappa-B kinase subunit beta (Homo sapiens, UniProt O14920); experiment: Ratio of compound IC50 to 8-(2-chloronicotinamido)-1-(4-fluorophenyl)-4,5-dihydro-1H-benzo[g]indazole-3-carboxamide IC50 for human recombinant IKK2
[2] = target: T1, Inhibitor of nuclear factor kappa-B kinase subunit beta; experiment: Ratio of compound IC50 to 1-(benzo[d][1,3]dioxol-5-yl)-8-(2-chloronicotinamido)-4,5-dihydro-1H-benzo[g]indazole-3-carboxamide IC50 for human recombinant IKK2
[3] = target: T1, Inhibitor of nuclear factor kappa-B kinase subunit beta; experiment: Ratio of compound IC50 to PHA-408 IC50 for human recombinant IKK2

| Ratio IC50 [1] | Ratio IC50 [2] | Ratio IC50 [3] | SMILES |
| --- | --- | --- | --- |
| 10 | 10 |  | CN1CCN(c2ccc(Cl)c(C(=O)Nc3ccc4c(c3)-c3c(c(C(N)=O)nn3-c3ccc5c(c3)OCO5)CC4)n2)CC1 |
|  |  | 4 | CN1CCN(c2cc(C(=O)Nc3ccc4c(c3)-c3c(c(C(N)=O)nn3-c3ccc(F)cc3)CC4)ccn2)CC1 |
